The source of these data is ChEMBL document CHEMBL3885861, “Open TG-GATES”.

SMILES strings stand for the structures.

The species entered for data set [1] is Rattus norvegicus. Description: Open TG-GATES - Regimen: Single. The data set is classed as toxicity, organism-based, Sprague-Dawley. Details: regimen Single, gender Male, age 6 weeks. Conditions: in vivo, po, route gavage.
The species entered for data set [2] is Rattus norvegicus. Description: Open TG-GATES - Regimen: Daily Repeat. Details: regimen Daily Repeat, gender Male, age 6 weeks. The data set is classed as toxicity, organism-based, Sprague-Dawley. Particulars: in vivo, po, route gavage; for MCH: tissue Blood; for A/G: tissue Plasma.
[3] abbreviates: 0 mg/kg, 3 h, tissue Plasma, dose level Control.
The mark [4] stands for this setting: 0 mg/kg, 6 h, tissue Plasma, dose level Control.
[5] abbreviates: 0 mg/kg, 9 h, tissue Plasma, dose level Control.
Setting [6] is: 0 mg/kg, 72 h, dose level Control, time 3 day.
Setting [7] is: 0 mg/kg, […], dose level Control, time 14 day.
Setting [8] is: 0 mg/kg, 3 h, tissue Blood, dose level Control.
The mark [9] stands for this setting: 0 mg/kg, 6 h, tissue Blood, dose level Control.
Where [10] appears, read: 0 mg/kg, 24 h, tissue Blood, dose level Control.
Where [11] appears, read: 30 mg/kg, 24 h, tissue Blood, dose level High.

As to `CS(=O)(=O)Nc1ccc([N+](=O)[O-])cc1Oc1ccccc1` [NIMESULIDE], the A/G stood at 2.4 in the data set listed under Rattus norvegicus [1] (setting [3]); 2.4 in the data set listed under Rattus norvegicus [1] (setting [4]); 3 in the data set listed under Rattus norvegicus [1] (setting [5]); 2.9 in the data set listed under Rattus norvegicus [1] (0 mg/kg, 24 h, tissue Plasma, dose level Control); 2.6 in the data set filed under Rattus norvegicus [1] (30 mg/kg, 3 h, tissue Plasma, dose level Low); 2.5 in the data set listed under Rattus norvegicus [1] (30 mg/kg, 6 h, tissue Plasma, dose level Low). The A/G in the data set listed under Rattus norvegicus [1] (30 mg/kg, 9 h, tissue Plasma, dose level Low) came out at 2.9; in the data set filed under Rattus norvegicus [1] (30 mg/kg, 24 h, tissue Plasma, dose level Low) it was 2.7; in the data set filed under Rattus norvegicus [1] (100 mg/kg, 3 h, tissue Plasma, dose level Middle), 3; in the data set filed under Rattus norvegicus [1] (100 mg/kg, 6 h, tissue Plasma, dose level Middle), 2.4; in the data set filed under Rattus norvegicus [1] (100 mg/kg, 9 h, tissue Plasma, dose level Middle), 3; in the data set filed under Rattus norvegicus [1] (100 mg/kg, 24 h, tissue Plasma, dose level Middle), 2.6. The A/G turned out to be 2.9 in the data set listed under Rattus norvegicus [1] (300 mg/kg, 3 h, tissue Plasma, dose level High); 2.5 in the data set listed under Rattus norvegicus [1] (300 mg/kg, 6 h, tissue Plasma, dose level High); 3 in the data set filed under Rattus norvegicus [1] (300 mg/kg, 9 h, tissue Plasma, dose level High); 3 in the data set filed under Rattus norvegicus [1] (300 mg/kg, 24 h, tissue Plasma, dose level High); 2.7 in the data set filed under Rattus norvegicus [2] (setting [6]); 2.4 in the data set listed under Rattus norvegicus [2] (0 mg/kg, […], dose level Control, time 7 day). The A/G came to 2.1 in the data set filed under Rattus norvegicus [2] (setting [7]); 2.1 in the data set listed under Rattus norvegicus [2] (0 mg/kg, […], dose level Control, time 28 day); 2.6 in the data set filed under Rattus norvegicus [2] (10 mg/kg, 72 h, dose level Low, time 3 day); 2.3 in the data set filed under Rattus norvegicus [2] (10 mg/kg, […], dose level Low, time 7 day); 2 in the data set filed under Rattus norvegicus [2] (10 mg/kg, […], dose level Low, time 14 day); 2 in the data set listed under Rattus norvegicus [2] (10 mg/kg, […], dose level Low, time 28 day). Also, the A/G in the data set listed under Rattus norvegicus [2] (30 mg/kg, 72 h, dose level Middle, time 3 day) turned out to be 2.7; in the data set filed under Rattus norvegicus [2] (30 mg/kg, […], dose level Middle, time 7 day), 2.3; in the data set listed under Rattus norvegicus [2] (30 mg/kg, […], dose level Middle, time 14 day) it was 2.2; in the data set filed under Rattus norvegicus [2] (30 mg/kg, […], dose level Middle, time 28 day), 1.8; in the data set filed under Rattus norvegicus [2] (100 mg/kg, 72 h, dose level High, time 3 day) it was 2.8; in the data set filed under Rattus norvegicus [2] (100 mg/kg, […], dose level High, time 7 day), 2. Also, the A/G in the data set listed under Rattus norvegicus [2] (100 mg/kg, […], dose level High, time 14 day) is listed as 2; in the data set listed under Rattus norvegicus [2] (100 mg/kg, […], dose level High, time 28 day) it was 2.2. The MCH in the data set filed under Rattus norvegicus [1] (30 mg/kg, 3 h, tissue Blood, dose level Low) was determined as 21.3 pg; in the data set listed under Rattus norvegicus [1] (30 mg/kg, 24 h, tissue Blood, dose level Low) it was 21.3 pg; in the data set filed under Rattus norvegicus [2] (setting [6]), 21.3 pg; in the data set listed under Rattus norvegicus [2] (setting [7]) it was 21.3 pg.

For the molecule `CNCCC(Oc1ccc(C(F)(F)F)cc1)c1ccccc1.Cl` (stereo not drawn) [FLUOXETINE HYDROCHLORIDE], the Hb is 13.2 g/dL in the data set listed under Rattus norvegicus [1] (setting [8]); 13.2 g/dL in the data set filed under Rattus norvegicus [1] (setting [9]); 13.2 g/dL in the data set listed under Rattus norvegicus [1] (30 mg/kg, 9 h, tissue Blood, dose level High). The molecule also displayed a TC in the data set listed under Rattus norvegicus [1] (setting [3]) of 83.2 mg/dL. Besides, the MCV was found to be 66.9 fL in the data set filed under Rattus norvegicus [1] (setting [9]) and 66.2 fL in the data set listed under Rattus norvegicus [1] (setting [10]). Also, the values for the LDH in the data set listed under Rattus norvegicus [1] (setting [4]) and in the data set listed under Rattus norvegicus [1] (setting [5]) were 90.8 IU/L and 107 IU/L, respectively. The molecule further displayed a Fbg in the data set filed under Rattus norvegicus [1] (0 mg/kg, 9 h, tissue Blood, dose level Control) of 244.6 mg/dL. For the same molecule, the RBC in the data set filed under Rattus norvegicus [1] (setting [10]) is recorded as 598.6 x10_4/ul; in the data set filed under Rattus norvegicus [1] (3 mg/kg, 9 h, tissue Blood, dose level Low), 598.6 x10_4/ul; in the data set filed under Rattus norvegicus [1] (setting [11]), 606.4 x10_4/ul. In the data set listed under Rattus norvegicus [1] (3 mg/kg, 3 h, tissue Plasma, dose level Low), this molecule returned an AST of 69.6 IU/L. In the data set filed under Rattus norvegicus [1] (3 mg/kg, 6 h, tissue Blood, dose level Low), this molecule showed a PT of 12.5 s. Besides, the Ca in the data set filed under Rattus norvegicus [1] (3 mg/kg, 6 h, tissue Plasma, dose level Low) is listed as 11.5 mg/dL; in the data set filed under Rattus norvegicus [1] (30 mg/kg, 24 h, tissue Plasma, dose level High) it was 10.7 mg/dL. In addition, in the data set filed under Rattus norvegicus [1] (10 mg/kg, 24 h, tissue Blood, dose level Middle), the APTT was 15.8 s. In the data set filed under Rattus norvegicus [1] (10 mg/kg, 24 h, tissue Plasma, dose level Middle), this molecule had a Cl of 104.1 meq/L. Moreover, in the data set filed under Rattus norvegicus [1] (30 mg/kg, 3 h, tissue Blood, dose level High), the Mono worked out at 13.2%. For the same molecule, the Neu in the data set listed under Rattus norvegicus [1] (30 mg/kg, 6 h, tissue Blood, dose level High) amounted to 18.6%; in the data set filed under Rattus norvegicus [1] (setting [11]) it was 15.8%. In the data set filed under Rattus norvegicus [1] (setting [11]), this molecule displayed a Plat of 127 x10_4/uL.

Take `COc1cc2ncnc(Nc3ccc(F)c(Cl)c3)c2cc1OCCCN1CCOCC1` [GEFITINIB]: the MCV is on record as 64.9 fL in the data set listed under Rattus norvegicus [1] (setting [8]) and 63.1 fL in the data set listed under Rattus norvegicus [1] (200 mg/kg, 9 h, tissue Blood, dose level Low). The GLC in the data set listed under Rattus norvegicus [1] (setting [3]) and in the data set filed under Rattus norvegicus [1] (setting [5]) was 188.2 mg/dL each time. Also, the MCHC in the data set filed under Rattus norvegicus [1] (setting [10]) amounted to 32.3%; in the data set filed under Rattus norvegicus [1] (600 mg/kg, 24 h, tissue Blood, dose level Middle), 32.3%. In addition, the Hb came out at 12.4 g/dL in the data set listed under Rattus norvegicus [1] (200 mg/kg, 6 h, tissue Blood, dose level Low) and 12.4 g/dL in the data set filed under Rattus norvegicus [1] (600 mg/kg, 3 h, tissue Blood, dose level Middle). Besides, the Plat in the data set filed under Rattus norvegicus [1] (2000 mg/kg, 24 h, tissue Blood, dose level High) stood at 126.5 x10_4/uL. The BUN in the data set filed under Rattus norvegicus [1] (2000 mg/kg, 24 h, tissue Plasma, dose level High) came to 22.9 mg/dL.
